For the data set the following is noted: rat, in vivo.

The values below come from patent US20120208781A1, “AMINOGLYCOSIDE DOSING REGIMENS” (Achaogen, Inc., priority 2009, published 2012).

Where two headings read alike, the source gives them in different places.

As for `NC[C@H]1O[C@H](O[C@H]2[C@H](O)[C@@H](O[C@H]3O[C@H](CO)[C@@H](O)[C@H](N)[C@H]3O)[C@H](N)C[C@@H]2N)[C@H](N)C[C@@H]1O` [Tobramycin, tobramycin], the CA is given as 11.3 (10 mg/kg), 11.1 (30 mg/kg) and 11.7 (100 mg/kg). Besides, the “CA, day 6” value runs as follows: (10 mg/kg) 11.1 mg/dL; (30 mg/kg) 11.1 mg/dL.
